Results from ChEMBL document CHEMBL5370558, “Modifications of geldanamycin via CuAAC altering affinity to chaperone protein Hsp90 and cytotoxicity” (Eur J Med Chem, 2023).

How the values were obtained:
[1] = Selectivity index, ratio of IC50 for cytotoxicity against human HDF cells to IC50 for anticancer activity against human SK-BR-3 cells; format: toxicity, cell-based; conditions: HDF cells versus SK-BR-3 cells, read-out: Ratio IC50
[2] = Selectivity index, ratio of IC50 for cytotoxicity against human HDF cells to IC50 for anticancer activity against human SK-OV-3 cells; format: cell-based; conditions: HDF cells versus SK-OV-3 cells, read-out: Ratio IC50
[3] = Selectivity index, ratio of IC50 for cytotoxicity against human HDF cells to IC50 for anticancer activity against human PC-3 cells; format: toxicity, cell-based; conditions: HDF cells versus PC-3 cells, read-out: Ratio IC50
[4] = biological target: T1, Heat shock protein HSP 90-alpha (Homo sapiens, UniProt P07900); test: Binding affinity to recombinant human HSP90alpha assessed as dissociation constant by isothermal titration calorimetry assay
SK-BR-3 = test: Induction of apoptosis in human SK-BR-3 cells assessed as apoptotic index ratio using ABTS as substrate at 0.1 to 10 ug/ml incubated for 6.5 hrs by ELISA analysis; format: functional; conditions: dose 0.1-10 µg/ml
SK-OV-3 = test: Induction of apoptosis in human SK-OV-3 cells assessed as apoptotic index ratio using ABTS as substrate at 0.1 to 10 ug/ml incubated for 6.5 hrs by ELISA analysis; format: functional; conditions: dose 0.1-10 µg/ml
PC-3 = test: Induction of apoptosis in human PC-3 cells assessed as apoptotic index ratio using ABTS as substrate at 0.1 to 10 ug/ml incubated for 6.5 hrs by ELISA analysis; format: functional; conditions: dose 0.1-10 µg/ml
[5] = biological target: T1, Heat shock protein HSP 90-alpha
[6] = biological target: T1, Heat shock protein HSP 90-alpha; remark: listed apart in the source
[7] = biological target: T1, Heat shock protein HSP 90-alpha; remark: listed apart in the source

SMILES: CO[C@H]1/C=C\C=C(/C)C(=O)NC2=CC(=O)C(NCc3cn(C/C=C/c4ccccc4)nn3)=C(C[C@@H](C)C[C@H](OC)[C@H](O)[C@@H](C)/C=C(\C)[C@@H]1OC(N)=O)C2=O
- selectivity ratio [1]: 2.91
- selectivity ratio [2]: 3.13
- selectivity ratio [3]: 3.05
- Kd [4]: 3.86 µM
- Ratio (SK-BR-3): 6.31
- Ratio (SK-OV-3): 6.03
- Ratio (PC-3): 4.11
- logKa [5]: 5.41
- deltaH [6]: -8.27 kcal/mol
- deltaG [7]: -7.39 kcal/mol

SMILES: CO[C@H]1/C=C\C=C(/C)C(=O)NC2=CC(=O)C(NCc3cn(Cc4ccc(Cl)cc4)nn3)=C(C[C@@H](C)C[C@H](OC)[C@H](O)[C@@H](C)/C=C(\C)[C@@H]1OC(N)=O)C2=O
- selectivity ratio [1]: 1.83
- selectivity ratio [2]: 1.91
- selectivity ratio [3]: 1.91
- Kd [4]: 5.53 µM
- Ratio (SK-BR-3): 5.12
- Ratio (SK-OV-3): 5.37
- Ratio (PC-3): 4.62
- logKa [5]: 5.26
- deltaH [6]: -8.03 kcal/mol
- deltaG [7]: -7.17 kcal/mol

SMILES: CO[C@H]1/C=C\C=C(/C)C(=O)NC2=CC(=O)C(NCc3cn(CCCOS(=O)(=O)c4ccc(C)cc4)nn3)=C(C[C@@H](C)C[C@H](OC)[C@H](O)[C@@H](C)/C=C(\C)[C@@H]1OC(N)=O)C2=O
- selectivity ratio [1]: 1
- selectivity ratio [2]: 0.98
- selectivity ratio [3]: 0.96
- Kd [4]: 4.93 µM
- Ratio (SK-BR-3): 4.92
- Ratio (SK-OV-3): 4.88
- Ratio (PC-3): 4.71
- logKa [5]: 5.31
- deltaH [6]: -5.83 kcal/mol
- deltaG [7]: -7.24 kcal/mol
